Results as given in ChEMBL document CHEMBL2176940, “Discovery of ligands for ADP-ribosyltransferases via docking-based virtual screening” (J Med Chem, 2012).

The chains behind the UniProt entries cited, without tags or fusion partners.
UniProt Q460N5, whole entry: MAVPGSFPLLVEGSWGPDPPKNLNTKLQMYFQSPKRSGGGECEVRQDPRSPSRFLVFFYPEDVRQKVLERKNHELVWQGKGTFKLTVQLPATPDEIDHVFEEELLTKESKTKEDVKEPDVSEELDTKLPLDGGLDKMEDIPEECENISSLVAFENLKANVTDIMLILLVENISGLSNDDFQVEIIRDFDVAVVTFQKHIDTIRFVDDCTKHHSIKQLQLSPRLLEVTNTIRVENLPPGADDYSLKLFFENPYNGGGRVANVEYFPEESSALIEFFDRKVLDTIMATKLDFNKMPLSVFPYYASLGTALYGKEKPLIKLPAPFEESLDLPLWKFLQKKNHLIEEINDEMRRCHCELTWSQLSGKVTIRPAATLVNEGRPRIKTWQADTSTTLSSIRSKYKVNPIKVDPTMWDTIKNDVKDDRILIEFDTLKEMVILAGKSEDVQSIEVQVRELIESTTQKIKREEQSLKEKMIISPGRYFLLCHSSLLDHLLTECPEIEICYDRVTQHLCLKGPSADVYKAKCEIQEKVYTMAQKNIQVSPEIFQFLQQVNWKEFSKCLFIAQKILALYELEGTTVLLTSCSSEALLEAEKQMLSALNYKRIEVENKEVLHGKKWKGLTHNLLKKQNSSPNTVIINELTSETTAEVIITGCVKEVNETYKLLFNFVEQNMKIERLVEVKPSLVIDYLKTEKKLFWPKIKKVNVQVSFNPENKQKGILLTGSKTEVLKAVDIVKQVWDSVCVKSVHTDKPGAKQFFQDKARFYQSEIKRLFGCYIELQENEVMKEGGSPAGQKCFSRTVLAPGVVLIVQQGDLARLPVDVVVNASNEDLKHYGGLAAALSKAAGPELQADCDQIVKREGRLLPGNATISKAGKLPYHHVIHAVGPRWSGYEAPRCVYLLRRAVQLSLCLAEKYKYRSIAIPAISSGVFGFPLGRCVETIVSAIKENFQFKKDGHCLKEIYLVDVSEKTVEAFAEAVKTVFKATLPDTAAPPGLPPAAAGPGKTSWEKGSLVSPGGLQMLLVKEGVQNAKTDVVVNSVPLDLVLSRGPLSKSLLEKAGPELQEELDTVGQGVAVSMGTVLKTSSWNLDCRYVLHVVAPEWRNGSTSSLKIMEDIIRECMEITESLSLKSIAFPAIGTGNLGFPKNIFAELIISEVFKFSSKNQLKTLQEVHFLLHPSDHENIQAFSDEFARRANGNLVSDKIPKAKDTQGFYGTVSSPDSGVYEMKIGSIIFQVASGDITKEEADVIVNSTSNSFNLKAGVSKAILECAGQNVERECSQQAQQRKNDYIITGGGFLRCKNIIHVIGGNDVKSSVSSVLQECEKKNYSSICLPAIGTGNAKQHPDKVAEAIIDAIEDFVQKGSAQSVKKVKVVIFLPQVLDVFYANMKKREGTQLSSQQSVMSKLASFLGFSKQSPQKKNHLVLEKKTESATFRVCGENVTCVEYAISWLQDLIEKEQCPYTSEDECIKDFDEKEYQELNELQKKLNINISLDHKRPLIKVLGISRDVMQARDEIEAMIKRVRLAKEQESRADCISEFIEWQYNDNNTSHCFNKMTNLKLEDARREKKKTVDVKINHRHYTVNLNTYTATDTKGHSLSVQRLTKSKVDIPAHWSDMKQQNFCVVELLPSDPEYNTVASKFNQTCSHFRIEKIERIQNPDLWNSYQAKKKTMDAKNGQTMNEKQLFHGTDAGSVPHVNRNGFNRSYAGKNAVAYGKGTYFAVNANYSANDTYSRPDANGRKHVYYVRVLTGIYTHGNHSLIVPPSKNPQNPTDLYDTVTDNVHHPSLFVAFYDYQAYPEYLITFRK

Columns and labels:
[1] = target: T1, Protein mono-ADP-ribosyltransferase PARP15 (Homo sapiens) (UniProt Q460N3)
T1 sequence (whole entry): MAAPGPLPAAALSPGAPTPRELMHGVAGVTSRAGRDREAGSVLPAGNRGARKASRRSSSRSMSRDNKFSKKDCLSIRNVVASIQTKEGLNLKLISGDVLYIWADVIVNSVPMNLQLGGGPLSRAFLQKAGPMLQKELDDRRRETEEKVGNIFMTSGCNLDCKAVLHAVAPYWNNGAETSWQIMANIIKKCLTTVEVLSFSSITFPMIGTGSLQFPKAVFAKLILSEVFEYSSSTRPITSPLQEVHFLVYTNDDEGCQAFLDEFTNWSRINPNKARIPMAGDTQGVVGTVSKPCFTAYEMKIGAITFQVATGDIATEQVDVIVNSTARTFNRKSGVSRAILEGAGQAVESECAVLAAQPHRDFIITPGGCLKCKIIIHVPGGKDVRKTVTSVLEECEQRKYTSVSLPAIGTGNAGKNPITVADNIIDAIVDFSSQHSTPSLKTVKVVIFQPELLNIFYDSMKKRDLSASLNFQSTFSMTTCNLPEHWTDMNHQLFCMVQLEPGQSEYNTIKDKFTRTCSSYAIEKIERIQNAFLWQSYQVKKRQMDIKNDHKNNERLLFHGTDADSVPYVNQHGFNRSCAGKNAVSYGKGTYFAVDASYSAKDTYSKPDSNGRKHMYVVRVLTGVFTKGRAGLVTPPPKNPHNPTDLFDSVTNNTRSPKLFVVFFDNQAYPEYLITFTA

[2] = target: Protein mono-ADP-ribosyltransferase PARP14 (Homo sapiens) (UniProt Q460N5)

Row | SMILES | ΔTm [1] [°C] | ΔTm [2] [°C]
1 | O=c1[nH]cnc2c1sc1nc(-c3ccccc3)ccc12 | 1.51 | 0.65
2 | Cc1cc(C)c2c(=O)[nH]c(SCC(=O)c3ccccc3)nc2n1 | -0.09 | 2.65
3 | Cc1ccc(SCCNc2nc3c([nH]2)c(=O)n(C)c(=O)n3C)cc1 | 0.09 | 2.11
4 | O=C(Nc1nnc(CSCc2ccccc2)s1)c1ccc(F)cc1 | 0.36 | 1.66
5 | Cn1c(=O)c2[nH]c(NCCc3ccc(Cl)cc3)nc2n(C)c1=O | 0.66 | 3.01
6 | CN1CCN(c2nc3c([nH]2)c(=O)n(C)c(=O)n3C)CC1 | 0.19 | 1.56
7 | Oc1ccccc1-c1n[nH]c(-c2ccccc2O)n1 | -0.34 | 2.65
8 | COc1ccc(-c2cc3ncnc(O)c3s2)cc1 | 1.49 | 1.11
9 | COc1ccc(CCNc2nc3c([nH]2)c(=O)n(C)c(=O)n3C)cc1 | 1.09 | 2.62
10 | O=C(CSc1ncn[nH]1)c1ccc(O)c(O)c1 | -0.05 | 2.28
11 | Cc1sc2nc(SCC(=O)c3ccc(O)c(O)c3)[nH]c(=O)c2c1C | 0.33 | 1.63
12 | Cn1c(=O)c2[nH]c(NN=C3C(=O)NC(=O)NC3=O)nc2n(C)c1=O | -0.08 | 2.12
13 | NC(=O)c1cccc(N2C(=O)c3ccccc3C2=O)c1 | 0.06 | 2.1
14 | N=C1NC(=O)/C(=C/c2ccc(O)c(Cl)c2)S1 | -0.25 | 3.89
15 | CC1(C)Cc2ccccc2-c2nc(NN)nc(O)c21 | 1.38 | 2.05
